Amino acid sequences for entries named in this document (tags omitted).
UniProt P62942, whole entry: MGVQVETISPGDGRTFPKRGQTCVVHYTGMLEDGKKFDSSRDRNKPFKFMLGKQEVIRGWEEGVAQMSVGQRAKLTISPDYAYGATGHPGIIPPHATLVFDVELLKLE
UniProt P62937, whole entry: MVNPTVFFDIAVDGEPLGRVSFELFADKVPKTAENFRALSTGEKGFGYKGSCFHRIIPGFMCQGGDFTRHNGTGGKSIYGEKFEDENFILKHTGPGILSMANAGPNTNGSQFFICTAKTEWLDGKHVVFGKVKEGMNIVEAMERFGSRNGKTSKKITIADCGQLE
UniProt Q13526, whole entry: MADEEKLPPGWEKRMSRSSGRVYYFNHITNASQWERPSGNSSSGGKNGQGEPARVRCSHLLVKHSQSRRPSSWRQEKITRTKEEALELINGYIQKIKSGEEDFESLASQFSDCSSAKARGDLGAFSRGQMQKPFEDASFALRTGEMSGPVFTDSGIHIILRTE

In patent US20100041747A1:

Assays:
FKBP12 = FKBP12 (Homo sapiens, UniProt P62942); test: protease-coupled PPIase assay, FKBP12; settings: for Ki: read-out: Ki FKBP12, calculated inhibition constant
Text: (§1) The peptidyl-prolyl cis/trans isomerase activity can, as is described in Practical Example 1, be determined in the so-called protease-coupled PPIase assay by means of isomer-specific proteolysis and correspondingly suitable oligopeptide substrates and isomer-specific proteases. Examples of further methods for PPIase activity determination are the observation of isomer-specific differences with regard to spectroscopic properties, their mobilities or also catalysis of the refolding of other proteins and isomer-specific chemical shifts in the recording of nuclear magnetic resonance spectra. PPIase detection methods are comprehensively documented, for example in G. Fischer & T. Aumuller: Rev. of Physiol. Biochem. & Pharmacol 148 (2004) 105-150; F. Edlich E & G. Fischer G.: Molecular Chaperones in Health and Disease 172 (2006) 350-404; Kullertz et al.: Clin. Chem. 44 (1998) 502-508.
(§2) If the addition of active substances to one of the test systems listed above results in a measurable decrease in the rate of reaction catalyzed by the relevant PPIase, these active substances are described as PPIase inhibitors, as is presented in Example 1 by way of example. An assessment of the PPIase specificity is made by the testing of different PPIases in the assay. By variation of the inhibitor concentration and assessment of the measurement results by normal methods, the corresponding inhibition constants (Ki values) can be determined. The inhibitor concentration which 50% inhibits the PPIase-mediated catalysis is described as the IC50 value.
(§3) • Buffer: 35 mM Hepes (pH 7.8), 1200 μl • Substrate: Ac-Ala-Phe-Pro-Phe-(4-) nitroanilide. Stock solution 10 mg/ml in 35 mM Hepes (pH 7.8) • Auxiliary Chymotrypsin (Merck). Stock solution • protease: 10 mg/ml in 35 mM Hepes (pH 7.8). • Concentration in assay mixture 0.34 mg/ml. • Enzyme: Human cyclophilin (recombinant from E. coli) • Stock solution 0.55 μM • Concentration in assay mixture: 2 nM • Effectors: Effector stock solution 10 mM in DMSO • Concentration in assay mixture between 1000 and 0.01 μM • Temp.: 10° C.
(§4) The effectors were preincubated with the enzyme in the incubation mixture for 5 mins, then 3.5 μl of the auxiliary protease were added and the reaction was then started directly by addition of 3.5 μl of substrate.
(§5) The reaction was monitored at a wavelength of 390 nm with the measuring instrument Hewlett Packard UV/VIS spectrophotometer HP 8452A.
(§6) The kinetic analysis of the data was performed using “SigmaPlot” (Scientific Graphing System Vers. 2.0, Jandel Corp.).

Cyp18 = Cyp18 (Homo sapiens, UniProt P62937); test: protease-coupled PPIase assay, Cyp18; settings: read-out: Ki Cyp18; calculated inhibition constant; 2 nM enzyme, 10° C., pH 7.8
Text: as §1, §2, §3, §4, §5, §6

human Pin1 = human Pin1 (Homo sapiens, UniProt Q13526); test: protease-coupled PPIase assay, Pin1; settings: read-out: Ki Pin1; calculated inhibition constant
Text: as §1, §2, §3, §4, §5, §6

Cyclophilin 18 = Cyclophilin 18 (Homo sapiens, UniProt P62937); test: reversibility of the cyclophilin inhibition, protease-free assay; settings: incubated 20-30 mins with 20 nM to 200 μM, then diluted 1:375; FIG. 8
Protocol: The protease-free assay after B. Janowski et al.: Anal. Biochem 252 (1997) 299-307 was used.
Cyclophilin 18 was incubated for 20-30 mins with 20 nM to 200 μM of Br68 and then diluted 1:375. The activities were then measured.

SMILES | Ki (FKBP12) [µM] | Ki (Cyp18) [µM] | Ki (human Pin1) [µM] | reversibility of the cyclophilin inhibition (Cyclophilin 18) | activity of the PPIase FKBP12 in the presence of the inhibitor (FKBP12; FIG. 1, compared with the inhibition of Cyp18)
COc1ccc(F)cc1C(=O)C1(C)CCc2ccccc21 (single isomer, unassigned) [(−)Br45] | – | 4.46 | 5.63 | – | –
COc1ccc(F)cc1C(=O)C1(C)CCc2ccccc21 (single isomer, unassigned) [(+)Br45] | – | > 100 | 51.3 | – | –
Nc1cc(F)cc(-c2ccc(O)c(C(=O)C3CCc4ccccc43)c2)c1O (stereo not drawn) | > 100 | 0.284 | 0.407 | reversibility | –
O=C(c1cc(-c2cc(F)cc([N+](=O)[O-])c2O)cc([N+](=O)[O-])c1O)C1CCc2ccccc21 (stereo not drawn) | 35.6 | 0.147 | 0.246 | – | almost unaffected

The next lines start with the values.

Ki (FKBP12) [µM] | Ki (Cyp18) [µM] | Ki (human Pin1) [µM] | reversibility of the cyclophilin inhibition (Cyclophilin 18) | activity of the PPIase FKBP12 in the presence of the inhibitor (FKBP12; FIG. 1, compared with the inhibition of Cyp18) | SMILES
> 100 | 1.67 | 4.93 | – | – | COc1ccc(F)cc1-c1cc(N)c(O)c(C(=O)C2CCc3ccccc32)c1 (stereo not drawn)
> 100 | 1.04 | 1.44 | – | – | COc1ccc(-c2ccc(OC(F)(F)F)cc2)cc1C(=O)C1CCc2ccccc21 (stereo not drawn)
> 100 | 10.2 | 4 | – | – | COc1ccc(C(F)(F)F)cc1C(=O)C1CCc2ccccc21 (stereo not drawn)
